# Experimental data published in PubChem BioAssay AID1454 (National Center for Advancing Translational Sciences (NCATS), 2008).
# The list shows a part of the results, in another mix than the full data. Results filed as inconclusive are left out. Calls of active or inactive are those of the source. Calls come from the whole dose curve; as a rule, active = well fitted inhibition curve with a large enough effect; inconclusive = small, poorly fitted or top-dose-only effect, or effect the other way; inactive = flat fitted curve, though single readings scatter.
# Experiment: qHTS Assay for Inhibitors of the ERK Signaling Pathway using a Homogeneous Screening Assay; Stimulation with EGF;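 note: plate controls were stimulated vehicle wells for no effect and unstimulated vehicle basal for full effect; nearly all actives have a fitted effect of over 55% in size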
# Details: HEK293-V1b, EGF-stimulated phospho-ERK AlphaScreen; at 11.5 µM (top of the series)
row,Compound,"activity change, negative = inhibition"
1,CN(CCCl)Cc1cc(Cl)c(NC2=NCCN2)c(Cl)c1,inactive: 16.3%
